US4009166A, “Pyrido(2,3-d) pyrimidinones” (Hisamitsu Pharmaceutical Co., Inc., priority 1974, dated 1977)

Tested on: dd-strain male mice
Settings: deaths 72 hours after administration

Cc1ccccc1-n1c(C)nc2ccccc2c1=O [methaqualone, reference compound]
acute toxicity i.p. (lethal dose): 300 to 1000 mg/kg
